By UniProt entry, the sequences of proteins in these tests, tags left out.
UniProt Q13526, whole entry: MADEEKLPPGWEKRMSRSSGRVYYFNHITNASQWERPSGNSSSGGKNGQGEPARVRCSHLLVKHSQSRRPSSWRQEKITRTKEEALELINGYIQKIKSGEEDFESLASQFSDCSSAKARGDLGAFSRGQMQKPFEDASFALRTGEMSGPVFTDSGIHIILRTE

In patent publication US20250296955A1, “PIN1 TARGETING COMPOUNDS AND DEGRADERS AND METHODS THEREOF” (The Regents of the University of California, priority 2024, published 2025):

Key:
Pin1 [1] = biological target: T1, Pin1 (Homo sapiens, UniProt Q13526); experiment: PIN1 degradation in pancreatic cancer cell lines; format: cell-based; conditions: read-out: DC50s, PIN1 degradation in cell; pancreatic cancer cell lines tested (FIG. 16)
Procedure: FIGS. 15A-15E. The agents also cause PIN1 degradation in the pancreatic cancer cell line BxPC3 (FIG. 15A), MiaPaca-2 (FIG. 15B), or PANC-1 (FIG. 15C). In the example, cells were treated with 0.1% DMSO or 15 μM of the reported agents for 24 h and PIN1 levels were quantified. Compounds 158H9 and 164A10 are potent PIN1 binders with IC50 values of 21.5 and 4.1 nM, respectively (FIG. 15D). The agents also cause thermal destabilization of PIN1 with ΔTm values of −8.41 and −8.95° C., respectively (FIG. 15E).
FIG. 16. […] 164B8 retains its PIN1 binding affinity (DELFTA assay IC50 4.85 nM) and PIN1 degradation in cell (DC50s˜500 nM in the pancreatic cancer cell lines tested. Cell killing is improved likely due to improved cell permeability associated with the N-methylation as shown for MiaPaca2 and KPC cell lines (EC50 8.4 μM and 5.3 μM, respectively.
At the end of the treatments, cells were lysed with a lysis buffer containing 20 mM Tris, pH 7.4, 120 mM NaCl, 1% Triton X-100, 0.5% sodium deoxycholate, 0.1% SDS, 1% IGEPAL, 5 mM EDTA, protease inhibitor cocktail and PhosSTOP (Sigma-Aldrich). Lysates were then centrifuged at 16,000×g for 20 min at 4° C. and supernatants were collected. Protein concentrations were determined using the Pierce BCA Protein Assay Kit (ThermoFisher Scientific) according to the manufacturer's instruction. […]

Pin1 [2] = biological target: T1, Pin1; experiment: DELFIA displacement assay (displacement of biotinylated D-peptide from 6His-Pin1); conditions: read-out: DELFIA IC50; running text and figure legends

`CNC(=O)C(Cc1c[nH]c2ccccc12)NC(=O)C1CCCCN1C(=O)C(Cc1c[nH]c2cc(Cl)ccc12)NC(=O)CCl` (centres unmarked) was tested, and the EC50 (Pin1 [1]) was 500 nM and the IC50 (Pin1 [2]) was 4.85 nM.
